{
  "sequences": {"note": "Sequences of proteins named here, by UniProt entry; tags and fusion partners are left off.", "UniProt P41143, whole entry": "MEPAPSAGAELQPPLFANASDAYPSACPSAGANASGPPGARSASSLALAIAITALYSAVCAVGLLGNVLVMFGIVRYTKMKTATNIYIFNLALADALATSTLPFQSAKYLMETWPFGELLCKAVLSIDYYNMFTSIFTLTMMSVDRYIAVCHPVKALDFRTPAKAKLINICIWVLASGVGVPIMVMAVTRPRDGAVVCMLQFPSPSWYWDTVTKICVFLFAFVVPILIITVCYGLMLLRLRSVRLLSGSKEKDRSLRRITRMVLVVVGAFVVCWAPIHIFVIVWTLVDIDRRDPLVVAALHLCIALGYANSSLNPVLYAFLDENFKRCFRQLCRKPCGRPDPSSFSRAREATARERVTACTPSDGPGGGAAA", "UniProt P41145, whole entry": "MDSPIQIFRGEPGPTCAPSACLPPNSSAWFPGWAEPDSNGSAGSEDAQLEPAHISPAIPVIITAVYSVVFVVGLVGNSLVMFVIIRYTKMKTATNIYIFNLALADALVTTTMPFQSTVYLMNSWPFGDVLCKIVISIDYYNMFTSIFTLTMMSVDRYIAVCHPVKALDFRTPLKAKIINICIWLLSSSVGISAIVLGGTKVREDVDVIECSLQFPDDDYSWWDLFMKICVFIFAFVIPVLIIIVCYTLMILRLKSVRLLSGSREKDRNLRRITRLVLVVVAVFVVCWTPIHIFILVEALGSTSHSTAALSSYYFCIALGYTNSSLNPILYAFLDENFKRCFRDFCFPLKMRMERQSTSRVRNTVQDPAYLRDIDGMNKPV", "UniProt P35372, whole entry": "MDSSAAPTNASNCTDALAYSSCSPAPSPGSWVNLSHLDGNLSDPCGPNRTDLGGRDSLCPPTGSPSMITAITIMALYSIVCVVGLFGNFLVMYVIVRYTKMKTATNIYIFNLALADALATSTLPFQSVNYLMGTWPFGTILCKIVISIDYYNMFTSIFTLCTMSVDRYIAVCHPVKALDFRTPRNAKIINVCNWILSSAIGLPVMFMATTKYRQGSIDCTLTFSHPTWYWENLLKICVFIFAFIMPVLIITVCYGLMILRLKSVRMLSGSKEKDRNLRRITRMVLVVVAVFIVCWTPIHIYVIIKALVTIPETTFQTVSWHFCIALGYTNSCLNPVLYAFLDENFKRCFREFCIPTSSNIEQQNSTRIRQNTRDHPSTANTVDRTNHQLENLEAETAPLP", "UniProt P41146, whole entry": "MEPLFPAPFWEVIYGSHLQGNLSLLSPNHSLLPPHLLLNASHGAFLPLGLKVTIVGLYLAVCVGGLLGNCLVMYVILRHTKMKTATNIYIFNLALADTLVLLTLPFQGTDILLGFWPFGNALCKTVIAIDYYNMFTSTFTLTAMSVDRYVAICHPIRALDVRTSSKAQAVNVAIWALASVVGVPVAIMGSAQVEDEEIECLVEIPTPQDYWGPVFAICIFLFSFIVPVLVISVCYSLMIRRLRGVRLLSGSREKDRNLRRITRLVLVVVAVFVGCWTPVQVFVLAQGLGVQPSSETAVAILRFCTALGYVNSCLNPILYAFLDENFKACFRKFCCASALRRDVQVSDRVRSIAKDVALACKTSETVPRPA"},
  "source": "BindingDB's records for US9221831",
  "key": {"[1]": {"target": "T1, Delta-type opioid receptor (Homo sapiens, UniProt P41143)", "assay": "ASSAY_NAME: Functional Assay DESCRIPTION: Functional [35S]GTPgammaS binding assays were conducted as follows. Delta opioid receptor membrane solution was prepared by sequentially adding final concentrations of 0.026 ug/ul delta membrane protein (Perkin Elmer, Shelton, Conn.), 10 ug/mL saponin, 3 uM GDP and 0.20 nM [35S]GTPgammaS to binding buffer (100 mM NaCl, 10 mM MgCl2, 20 mM HEPES, pH 7.4) on"}, "[2]": {"target": "T2, Kappa-type opioid receptor (Homo sapiens, UniProt P41145)", "assay": "ASSAY_NAME: Radioligand Dose-Displacement Binding Assay DESCRIPTION: Radioligand dose displacement assays used 0.4 nM [3H]-U69,593 (GE Healthcare, Piscataway, N.J.; 40 Ci/mmole) with 15 μg membrane protein (recombinant κ opioid receptor expressed in HEK 293 cells; in-house prep) in a final volume of 200 μl binding buffer (5% DMSO, 50 mM Trizma base, pH 7.4). Non-specific binding was"}, "[3]": {"target": "T2, Kappa-type opioid receptor", "assay": "ASSAY_NAME: Functional Assay DESCRIPTION: Functional [35S]GTPgammaS binding assays were conducted as follows. kippa opioid receptor membrane solution was prepared by sequentially adding final concentrations of 0.026 ug/ul kippa membrane protein (in-house), 10 ug/mL saponin, 3 uM GDP and 0.20 nM [35S]GTPgammaS to binding buffer (100 mM NaCl, 10 mM MgCl2, 20 mM HEPES, pH 7.4) on ice. The prepared me"}, "[4]": {"target": "T1, Delta-type opioid receptor", "assay": "ASSAY_NAME: Radioligand Dose-Displacement Binding Assay DESCRIPTION: Delta-opioid Receptor Binding Assay Procedures were conducted as follows. Radioligand dose-displacement assays used 0.3 nM [3H]-Naltrindole (Perkin Elmer, Shelton, Conn.; 33.0 Ci/mmole) with 5 ug membrane protein (Perkin Elmer, Shelton, Conn.) in a final volume of 500 ul binding buffer (5 mM MgCl2, 5% DMSO, 50 mM Trizma base, pH", "settings": "pH 7.4"}, "[5]": {"target": "T3, Mu-type opioid receptor (Homo sapiens, UniProt P35372)", "assay": "ASSAY_NAME: Radioligand Dose-Displacement Binding Assay DESCRIPTION: Radioligand dose-displacement binding assays for t-opioid receptors used 0.3 nM [3H]-diprenorphine (Perkin Elmer, Shelton, Conn.), with 5 mg membrane protein/well in a final volume of 500 ul binding buffer (10 mM MgCl2, 1 mM EDTA, 5% DMSO, 50 mM HEPES, pH 7.4). Reactions were carried out in the absence or presence of increasing c"}, "[6]": {"target": "T3, Mu-type opioid receptor", "assay": "ASSAY_NAME: Functional Assay DESCRIPTION: [35S]GTPgammaS functional assays were conducted using freshly thawed u-receptor membranes (Perkin Elmer, Shelton, Conn.). Assay reactions were prepared by sequentially adding the following reagents to binding buffer (100 mM NaCl, 10 mM MgCl2, 20 mM HEPES, pH 7.4) on ice (final concentrations indicated): membrane protein (0.026 mg/mL), saponin (10 mg/mL), G"}, "[7]": {"target": "T4, Nociceptin receptor (Homo sapiens, UniProt P41146)", "assay": "ASSAY_NAME: Radioligand Dose-Displacement Binding Assay DESCRIPTION: Radioligand binding assays (screening and dose-displacement) used 0.1 nM [3H]-nociceptin (Perkin Elmer, Shelton, Conn.; 87.7 Ci/mmole) with 12 ug membrane protein in a final volume of 500 ul binding buffer (10 mM MgCl2, 1 mM EDTA, 5% DMSO, 50 mM HEPES, pH 7.4). Non-specific binding was determined in the presence of 10 nM unlabele"}, "[8]": {"target": "T4, Nociceptin receptor", "assay": "ASSAY_NAME: Functional Assay DESCRIPTION: Functional [35S]GTPgammaS binding assays were conducted as follows. ORL-1 membrane solution was prepared by sequentially adding final concentrations of 0.026 ug/ul ORL-1 membrane protein, 10 ug/ml saponin, 3 uM GDP and 0.20 nM [35S]GTPgammaS to binding buffer (100 mM NaCl, 10 mM MgCl2, 20 mM HEPES, pH 7.4) on ice. The prepared membrane solution (190 ul/wel"}},
  "data": [
    {"smiles": "CO[C@]12CC[C@@]3(C[C@@H]1COCc1ccccc1)[C@H]1Cc4ccc(N)c5c4[C@@]3(CCN1C)[C@H]2O5", "values": [
      {"measurement": "EC50", "setting": "[1]", "value": 273, "unit": "nM"}
    ]},
    {"smiles": "CO[C@]12CC[C@@]3(C[C@@H]1COc1ccc(-n4ccnc4)cc1)[C@H]1Cc4ccc(O)c5c4[C@@]3(CCN1C)[C@H]2O5", "values": [
      {"measurement": "Ki", "setting": "[2]", "value": 4.18, "unit": "nM"},
      {"measurement": "EC50", "setting": "[3]", "value": 129, "unit": "nM"},
      {"measurement": "Ki", "setting": "[4]", "value": 43, "unit": "nM"},
      {"measurement": "EC50", "setting": "[1]", "value": 75.3, "unit": "nM"}
    ]},
    {"smiles": "COc1ccc2c3c1O[C@H]1[C@@]4(OC)CC[C@@]5(C[C@@H]4CSCc4ccccc4)[C@@H](C2)N(CC2CC2)CC[C@]315", "values": [
      {"measurement": "Ki", "setting": "[2]", "value": 0.14, "unit": "nM"},
      {"measurement": "Ki", "setting": "[5]", "value": 4.69, "unit": "nM"},
      {"measurement": "EC50", "setting": "[6]", "value": 32.7, "unit": "nM"},
      {"measurement": "EC50", "setting": "[3]", "value": 2.29, "unit": "nM"},
      {"measurement": "Ki", "setting": "[7]", "value": 1530, "unit": "nM"}
    ]},
    {"smiles": "COc1ccc2c3c1O[C@H]1[C@@]4(OC)CC[C@@]5(C[C@@H]4COC(=O)[C@@H](N)Cc4ccccc4)[C@@H](C2)N(CC2CC2)CC[C@]315", "values": [
      {"measurement": "Ki", "setting": "[2]", "value": 4.39, "unit": "nM"},
      {"measurement": "Ki", "setting": "[5]", "value": 14.3, "unit": "nM"},
      {"measurement": "Ki", "setting": "[4]", "value": 138, "unit": "nM"}
    ]},
    {"smiles": "COC(=O)COc1ccc(COC[C@H]2C[C@@]34CC[C@]2(OC)[C@@H]2Oc5c(OC)ccc6c5[C@@]23CCN(CC2CC2)[C@@H]4C6)cc1", "values": [
      {"measurement": "EC50", "setting": "[3]", "value": 95.1, "unit": "nM"},
      {"measurement": "Ki", "setting": "[4]", "value": 739, "unit": "nM"},
      {"measurement": "EC50", "setting": "[1]", "value": 778, "unit": "nM"}
    ]},
    {"smiles": "COCCOCCOCCOCCOCCOc1ccc2c3c1O[C@H]1[C@@]4(OC)CC[C@@]5(C[C@@H]4COCc4ccccc4)[C@@H](C2)N(CC2CC2)CC[C@]315", "values": [
      {"measurement": "Ki", "setting": "[5]", "value": 26.9, "unit": "nM"},
      {"measurement": "EC50", "setting": "[3]", "value": 42.2, "unit": "nM"},
      {"measurement": "EC50", "setting": "[1]", "value": 87.5, "unit": "nM"}
    ]},
    {"smiles": "CO[C@]12CC[C@@]3(C[C@@H]1COCc1ccccc1C)[C@H]1Cc4ccc(OCCO)c5c4[C@@]3(CCN1C)[C@H]2O5", "values": [
      {"measurement": "Ki", "setting": "[2]", "value": 0.46, "unit": "nM"},
      {"measurement": "EC50", "setting": "[8]", "value": 4100, "unit": "nM"}
    ]},
    {"smiles": "CO[C@]12CC[C@@]3(C[C@@H]1COCc1ccccc1)[C@H]1Cc4ccc(NS(C)(=O)=O)c5c4[C@@]3(CCN1C)[C@H]2O5", "values": [
      {"measurement": "Ki", "setting": "[2]", "value": 0.53, "unit": "nM"},
      {"measurement": "Ki", "setting": "[7]", "value": 1550, "unit": "nM"}
    ]},
    {"smiles": "CO[C@]12CC[C@@]3(C[C@@H]1COCc1ccccc1)[C@H]1Cc4ccc(O)c5c4[C@@]3(CCN1)[C@H]2O5", "values": [
      {"measurement": "EC50", "setting": "[3]", "value": 0.84, "unit": "nM"},
      {"measurement": "Ki", "setting": "[4]", "value": 13.8, "unit": "nM"},
      {"measurement": "EC50", "setting": "[1]", "value": 17.3, "unit": "nM"}
    ]},
    {"smiles": "COc1ccc2c3c1O[C@H]1[C@@]4(OC)CC[C@@]5(C[C@@H]4COC(=O)[C@@H](N)CC(C)C)[C@@H](C2)N(CC2CC2)CC[C@]315", "values": [
      {"measurement": "Ki", "setting": "[2]", "value": 1.16, "unit": "nM"},
      {"measurement": "Ki", "setting": "[5]", "value": 7.65, "unit": "nM"},
      {"measurement": "EC50", "setting": "[1]", "value": 129, "unit": "nM"}
    ]},
    {"smiles": "CO[C@]12CC[C@@]3(C[C@@H]1COC(=O)[C@@H](N)Cc1ccccc1)[C@H]1Cc4ccc(O)c5c4[C@@]3(CCN1CC1CC1)[C@H]2O5", "values": [
      {"measurement": "Ki", "setting": "[5]", "value": 0.19, "unit": "nM"},
      {"measurement": "EC50", "setting": "[3]", "value": 2.04, "unit": "nM"},
      {"measurement": "Ki", "setting": "[4]", "value": 1.23, "unit": "nM"},
      {"measurement": "EC50", "setting": "[1]", "value": 0.82, "unit": "nM"}
    ]},
    {"smiles": "COc1ccc2c3c1O[C@H]1[C@@]4(OC)CC[C@@]5(C[C@@H]4C[S+]([O-])Cc4ccccc4)[C@@H](C2)N(CC2CC2)CC[C@]315", "note": "(some centres undefined)", "values": [
      {"measurement": "Ki", "setting": "[2]", "value": 0.43, "unit": "nM"},
      {"measurement": "Ki", "setting": "[5]", "value": 14, "unit": "nM"},
      {"measurement": "EC50", "setting": "[3]", "value": 9.08, "unit": "nM"},
      {"measurement": "Ki", "setting": "[7]", "value": 6020, "unit": "nM"}
    ]},
    {"smiles": "CO[C@]12CC[C@@]3(C[C@@H]1COCc1cc4ccccc4s1)[C@H]1Cc4ccc(OCCO)c5c4[C@@]3(CCN1CC1CC1)[C@H]2O5", "values": [
      {"measurement": "Ki", "setting": "[2]", "value": 2.51, "unit": "nM"},
      {"measurement": "Ki", "setting": "[4]", "value": 278, "unit": "nM"}
    ]},
    {"smiles": "CO[C@]12CC[C@@]3(C[C@@H]1COCc1ccccc1)[C@H]1Cc4ccc(C(N)=O)c5c4[C@@]3(CCN1CC1CC1)[C@H]2O5", "values": [
      {"measurement": "Ki", "setting": "[2]", "value": 0.1, "unit": "nM"},
      {"measurement": "Ki", "setting": "[5]", "value": 0.34, "unit": "nM"},
      {"measurement": "EC50", "setting": "[6]", "value": 0.62, "unit": "nM"},
      {"measurement": "EC50", "setting": "[3]", "value": 0.7, "unit": "nM"}
    ]},
    {"smiles": "CO[C@]12CC[C@@]3(C[C@@H]1COCc1ccccc1)[C@H]1Cc4ccc(F)c5c4[C@@]3(CCN1CC1CC1)[C@H]2O5", "values": [
      {"measurement": "Ki", "setting": "[5]", "value": 17.4, "unit": "nM"},
      {"measurement": "EC50", "setting": "[6]", "value": 11.4, "unit": "nM"},
      {"measurement": "EC50", "setting": "[3]", "value": 1.5, "unit": "nM"},
      {"measurement": "Ki", "setting": "[4]", "value": 195, "unit": "nM"}
    ]},
    {"smiles": "COc1ccc2c3c1O[C@H]1[C@@]4(OC)CC[C@@]5(C[C@@H]4C(C)(C)OCc4ccccc4)[C@@H](C2)N(CC2CC2)CC[C@]315", "values": [
      {"measurement": "Ki", "setting": "[2]", "value": 0.93, "unit": "nM"},
      {"measurement": "Ki", "setting": "[5]", "value": 1.76, "unit": "nM"},
      {"measurement": "EC50", "setting": "[6]", "value": 5.85, "unit": "nM"}
    ]},
    {"smiles": "CO[C@]12CC[C@@]3(C[C@@H]1COCc1ccccc1)[C@H]1Cc4ccc(F)c5c4[C@@]3(CCN1C)[C@H]2O5", "values": [
      {"measurement": "Ki", "setting": "[2]", "value": 0.19, "unit": "nM"},
      {"measurement": "Ki", "setting": "[7]", "value": 286, "unit": "nM"}
    ]},
    {"smiles": "CO[C@]12CC[C@@]3(C[C@@H]1COc1ccc(-n4ccnc4)cc1)[C@H]1Cc4ccc(O)c5c4[C@@]3(CCN1CC1CC1)[C@H]2O5", "values": [
      {"measurement": "Ki", "setting": "[5]", "value": 0.93, "unit": "nM"},
      {"measurement": "Ki", "setting": "[4]", "value": 2.38, "unit": "nM"}
    ]}
  ]
}
